Measurements as given in the SangsterLogP compilation.

- logP: 0.51
SMILES: O=C1NC(=O)C(c2ccccc2)N1 (stereo unspecified)
